Source: patent publication US7709479B1, “Quinazoline derivatives and their use as pharmaceuticals” (AstraZeneca, priority 1999, dated 2010)

Biological target: T1, aurora2 kinase (Homo sapiens, UniProt O14965)
T1 sequence (O14965 1-403): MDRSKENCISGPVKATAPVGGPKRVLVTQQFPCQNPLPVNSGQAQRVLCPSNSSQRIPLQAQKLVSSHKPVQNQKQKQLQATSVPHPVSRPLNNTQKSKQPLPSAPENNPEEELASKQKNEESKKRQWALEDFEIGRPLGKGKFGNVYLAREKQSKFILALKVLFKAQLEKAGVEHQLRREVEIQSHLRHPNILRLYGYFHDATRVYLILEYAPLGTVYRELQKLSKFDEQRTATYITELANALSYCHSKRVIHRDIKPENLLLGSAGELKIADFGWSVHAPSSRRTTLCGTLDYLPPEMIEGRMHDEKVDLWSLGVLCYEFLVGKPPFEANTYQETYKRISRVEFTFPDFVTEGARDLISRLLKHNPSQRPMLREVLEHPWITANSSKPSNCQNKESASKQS
Assay: biochemical

COc1cc2ncnc(Nc3ccc(NC(=O)c4ccccc4)cc3)c2cc1OC [Compound 1]
IC50: 374 nM

COc1cc2ncnc(Nc3ccc(C(=O)NCc4ccc(F)cc4)cc3)c2cc1OC [Compound 557]
IC50: 519 nM
